Reference: patent US11299472B2, “Fumarate salt of (R)-3-(1-(2,3-dichloro-4-(pyrazin-2-yl)phenyl)-2,2,2- trifluoroethyl)-1-methyl-1-(1-methylpiperidin-4-yl) urea, methods of preparation, and uses thereof” (Helsinn Healthcare SA, priority 2017, dated 2022)

The chains behind the UniProt entries cited, without tags or fusion partners.
UniProt Q92847, whole entry: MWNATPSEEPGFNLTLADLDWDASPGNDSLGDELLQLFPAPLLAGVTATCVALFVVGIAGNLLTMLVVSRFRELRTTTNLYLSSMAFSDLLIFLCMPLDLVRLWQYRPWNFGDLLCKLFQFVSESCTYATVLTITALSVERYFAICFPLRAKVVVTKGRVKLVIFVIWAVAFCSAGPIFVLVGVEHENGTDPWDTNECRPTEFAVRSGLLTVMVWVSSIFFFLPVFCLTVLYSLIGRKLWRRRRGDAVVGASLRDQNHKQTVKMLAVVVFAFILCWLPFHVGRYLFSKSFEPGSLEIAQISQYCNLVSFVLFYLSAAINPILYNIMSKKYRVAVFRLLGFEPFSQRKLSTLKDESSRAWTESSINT

Columns and labels:
[1] = tested on: ghrelin-induced increase of GH; assay: Ghrelin-induced increase of growth hormone in rats; details: 10 mg/kg R011 i.p. 30 minutes before 15 μg/kg ghrelin i.v., 15 minutes after ghrelin
Description: Rats were divided into four groups: 1) 1 ml/kg saline plus 10 ml/kg 0.5% CMC p.o. (n=6); 2) 15 μg/kg ghrelin i.v. plus 10 ml/kg 0.5% CMC p.o. (n=6); 3) 30 mg/kg HM04 fumarate salt p.o. 2 hours before 15 μg/kg ghrelin i.v. (n=6); 4) 10 mg/kg ghrelin antagonist R011 i.p. 30 minutes before 15 μg/kg ghrelin i.v. (n=6). Blood was collected as 100 μl samples at time 0 and at 15 minutes after ghrelin injection. Rats were anesthetized with 64.8 mg/kg sodium pentobarbital. A catheter filled with heparinized saline solution was inserted in the left femoral artery for blood collection and fitted with an extension tube, 1-mL sampling syringe, and a 3-way cock to allow excess blood to return.
Plasma levels of growth hormone (GH) were determined using Rat GH ELISA (Millipore, Catalog No. EZRMGH-45K). Measurements were performed in duplicate. GH AUC 0-15 min was calculated using the trapezoidal method. One-way and two-way ANOVA test was used to compare differences between groups. All values are presented as mean±SEM. One-way ANOVA was performed followed by Turkey's post hoc test where significance was indicated by p values<0.05 or p values<0.01.

human GHSR1a receptor [2] = target: T1, human GHSR1a receptor (Homo sapiens, UniProt Q92847); assay: Antagonist FLIPR assay in HEK293 cells; details: read-out: antagonist activity on GHSR1a, IC50, HEK293 cells expressing human GHSR1a, in duplicate, HM04 tested as fumarate salt
Description: The compounds were diluted with 100% DMSO to make 30 mM stock. On the test day, serial dilutions were prepared starting from the stock solution. For the FLIPR assay: 1) 8 μl of DMSO was added to 2 μl of compound stock solution (30 mM) to produce 10 μl of 6 mM solution; half-fold serial dilutions of the 6 mM solution were produced to generate ten doses; 2) test solutions were obtained by diluting the stock solutions 1/40 in assay buffer (DMSO concentration 2.5%). […]
(§1) For the agonist and antagonist activity study, HEK293 cells stably expressing human GHSR1a receptor were used in a (FLIPR) assay. […] Fluorescence signal was detected with FLIPR at room temperature according to standard settings for 10 minutes before cells were exposed to 10 μl of 5× working concentrations of agonists (compound added by FLIPR). The fluorescence signal was detected in the subsequent 3 minutes (antagonist mode).
Data were reported as relative light units (RLUs) and analyzed using GraphPad Software Inc. version 6. The half maximal inhibitory concentration (IC50) measured for HM04 and R011 were calculated by non-linear regression analysis.

human GHSR1a receptor [3] = target: T1, human GHSR1a receptor; assay: Agonist FLIPR assay in HEK293 cells; details: FLIPR agonist mode, concentrations up to 10 μM
Description: (§2) The compounds were diluted with 100% DMSO to make 30 mM stock. On the test day, serial dilutions were prepared starting from the stock solution. For the FLIPR assay: 1) 8 μl of DMSO was added to 2 μl of compound stock solution (30 mM) to produce 10 μl of 6 mM solution; half-fold serial dilutions of the 6 mM solution were produced to generate ten doses; 2) test solutions were obtained by diluting the stock solutions 1/40 in assay buffer (DMSO concentration 2.5%). For the IP-1 assay: 1) 29 μl of DMSO was added to 1 μl of compound stock solution (30 mM) to produce 30 μl of 1 mM solution; half-fold serial dilutions of the 1 mM solution were produced to generate 10 doses; 2) test solutions were obtained by diluting the stock solutions 1/100 in assay buffer (DMSO final concentration 1%).
as §1

human GHSR1a receptor [4] = target: T1, human GHSR1a receptor; assay: Inositol 1 phosphate (IP-1) inverse agonist assay; details: IP-1 assay
Description: as §2
For the inverse agonist activity study, the same procedure described above was followed up to the day of the test. On the test day, the medium was removed by centrifuging at 700 rpm for 30 seconds and 20 μl/well of assay buffer containing the HM04 or R011 was added. The assay plates were incubated at 37° C. in the dark for 1 hour. IP1-d2 (5 μl) and AB-Cryp (5 μl) were sequentially added to all wells using multidrop Combi. The plate was incubated at room temperature for 1 hour and read on EnVision at 620 nm and 665 nm.

- IC50 (human GHSR1a receptor [2]): 343 nM
- agonist activity (human GHSR1a receptor [3]): No agonist activity was observed
Structure (SMILES): CCCCNC(=O)N1CCc2c([nH]c3ccc(OC)cc23)C12CCN(CCOc1ccccc1)C2 (stereo not shown)
- inhibition of ghrelin-induced increase of GH [1]: 78%
- inverse agonist activity (human GHSR1a receptor [4]): did not show a clear significant inverse agonist activity
